Data published in patent US5780589A, “Ultraselective opioidmimetic peptides and pharmacological and therapeutic uses thereof” (The United States of America as represented by the …, priority 1994, dated 1998).

Sequences of proteins named here, by UniProt entry; tags and fusion partners are left off. A change or cut given only in a name is not applied to a line headed by its entry.
UniProt P33533, whole entry: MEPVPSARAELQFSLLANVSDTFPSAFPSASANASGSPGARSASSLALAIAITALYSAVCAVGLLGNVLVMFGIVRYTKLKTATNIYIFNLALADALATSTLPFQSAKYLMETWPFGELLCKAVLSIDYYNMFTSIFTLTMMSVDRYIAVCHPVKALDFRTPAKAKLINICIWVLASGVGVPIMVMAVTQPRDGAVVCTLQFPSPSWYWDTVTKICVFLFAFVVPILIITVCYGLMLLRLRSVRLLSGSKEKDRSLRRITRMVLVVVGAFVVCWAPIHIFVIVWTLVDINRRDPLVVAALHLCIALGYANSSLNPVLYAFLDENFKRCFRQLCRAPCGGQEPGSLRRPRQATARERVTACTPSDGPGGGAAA

Molecular target: T1, δ opioid receptor (Rattus norvegicus, UniProt P33533)
T1 construct: Rat membrane synaptosome preparations (P2 fraction) were prepared as detailed previously; from tissue; host or cells: rat synaptosomal membranes (P2 fraction)
Assay: δ receptor binding, rat membrane synaptosomes, [3H]DPDPE
Conditions: rat synaptosomes (P2), mean ± SEM
Experimental: Rat membrane synaptosome preparations (P2 fraction) were prepared as detailed previously, which included a preincubation step to reduce the presence of endogenous ligands and binding of G proteins (33,40). The δ and μ receptor sites were labeled with [^3 H]DPDPE (34.3 Ci/mmol) and [^3 H]DAGO (60.0 Ci/mmol), respectively, under equilibrium conditions (2 hr at 22°-23° C.). Samples were rapidly filtered through wetted glass fiber filters and thoroughly washed with 6 mL (3×2 mL) ice-cold 50 mM Tris-HCl, pH 7.5, containing 0.01-0.1% chicken egg albumin or bovine serum albumin. Each peptide was assayed in duplicate with 5-9 dosages using 3-4 synaptosomal preparations. The filters were dried at 70° C. and the radioactivity determined after an overnight incubation period in CytoScint to maximize the radioactivity detected and reduce variability between samples. The IC50 values were converted to affinity constants (Ki) according to Cheng and Prusoff (48).

`Cc1cc(O)cc(C)c1C[C@H](N)C(=O)N1Cc2ccccc2C[C@@H]1C(=O)O` [Peptide 3, Dmt-D-Tic-OH] showed a Ki of 13.5 ± 1.59 nM.
